Molecular target: cyclin A (endogenous) (human (endogenous in HCT116 and RPE-hTERT)) (UniProt P20248)
Assay: co-IP

- fold more than Cdk1 in cyclin A complexes: 2 fold
Substance: Cdk2 (wild-type) (from UniProt P24941 1-298) (enzyme)
